Among the data in PubChem BioAssay AID1259310 (The Scripps Research Institute Molecular Screening Center, 2017) are normalized activity (activation) values, retold here.

Protein sequences, listed by entry. Tags and fused reporters are not part of them. Lines headed by an entry give the natural chain unless they say otherwise; changes in a name come on top.
UniProt Q969H0, whole entry, stated change not applied: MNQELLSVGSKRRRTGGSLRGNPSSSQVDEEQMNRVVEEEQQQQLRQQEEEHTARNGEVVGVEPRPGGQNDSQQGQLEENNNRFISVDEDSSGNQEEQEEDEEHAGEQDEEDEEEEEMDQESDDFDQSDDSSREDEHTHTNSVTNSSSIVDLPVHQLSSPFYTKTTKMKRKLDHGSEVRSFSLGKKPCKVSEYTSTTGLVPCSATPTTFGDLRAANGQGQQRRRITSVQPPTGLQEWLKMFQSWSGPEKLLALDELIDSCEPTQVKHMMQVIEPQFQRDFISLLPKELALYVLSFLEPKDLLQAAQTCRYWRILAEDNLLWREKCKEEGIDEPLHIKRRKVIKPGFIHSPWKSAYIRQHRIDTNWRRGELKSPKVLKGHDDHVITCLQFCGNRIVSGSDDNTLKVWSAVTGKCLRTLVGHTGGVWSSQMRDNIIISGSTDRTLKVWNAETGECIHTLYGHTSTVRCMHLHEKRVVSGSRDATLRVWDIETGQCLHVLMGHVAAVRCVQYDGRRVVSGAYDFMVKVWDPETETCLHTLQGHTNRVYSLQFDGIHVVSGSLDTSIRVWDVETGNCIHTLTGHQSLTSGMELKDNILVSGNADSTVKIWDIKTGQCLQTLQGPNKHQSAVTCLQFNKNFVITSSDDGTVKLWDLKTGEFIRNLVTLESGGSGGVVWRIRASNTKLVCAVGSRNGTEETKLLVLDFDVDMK

This is a selection; strong and weak results do not stand in their true shares. Some tests of the compounds listed are not included; inactive here does not mean inactive elsewhere. Activity calls are given as the source filed them. No stated cut-off is given here; in the data, active means normalized activity above about 1.9%; inactive means the rest.

The assay concerns the target F-box/WD repeat-containing protein 7 (Homo sapiens) (UniProt Q969H0). Description: FBW7 E3 ligase activators, primary screen, biochemical, AlphaScreen, human (AID 1259310).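 Further: purified mutant Fbw7 with reduced substrate affinity.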 Particulars: AlphaScreen FBW7–phospho-cyclin E peptide binding, activator screen; at 26.1 µM; stronger effect = higher value.
Regarding `CN(C)C1(CNC(=O)c2c(F)cccc2F)CCCCC1`, the normalized activity (activation) is inactive: -0.12%.
In the case of `CN(C)c1cccc(C(=O)NCC2(N(C)C)CCCCC2)c1`, the normalized activity (activation) was inactive: -0.07%.
Next, `CC(C)Oc1ccc(C(=O)NCC2(N(C)C)CCCCC2)cc1`: inactive: -0.09%; `CN1C2CCC1CC(OC(=O)C(O)(c1ccccc1)c1ccccc1)C2` (stereo not given): inactive: -0.33%.
Next, `COc1cccc(C(=O)NCC2(N3CCCCC3)CCCCC2)c1`: inactive: -0.05%; `COc1ccc(Cl)cc1C(=O)NCC1(N(C)C)CCCCC1`: inactive: 0.14%.
Next, `CC(CCN(C)C)OC(=O)C(O)(c1ccccc1)c1ccccc1` (stereo not given): inactive: -0.27%.
`CN(C)C1(CNC(=O)c2n[nH]c3ccccc23)CCCCC1`: the normalized activity (activation) was inactive: 0.03%.
Next, `CN(C)c1ccc(C(=O)NCC2(N(C)C)CCCCC2)cc1`: inactive: 0.49%; `CN(C)C1CCCC1OC(=O)C(O)(c1ccccc1)c1ccccc1` (stereo not given): inactive: 0.59%; `COc1ccc(C(=O)NCC2(N(C)C)CCCCC2)cc1`: inactive: 0.62%.
Next, `CC(C)N(CCOC(=O)C(O)(c1ccccc1)c1ccccc1)C(C)C`: inactive: 1.19%; `O=C(NCC1(N2CCOCC2)CCCCC1)c1cnc(Cl)c(Cl)c1`: inactive: 0.04%.
Next, `CN1CCCC(COC(=O)C(O)(c2ccccc2)c2ccccc2)C1` (stereo not given): inactive: -0.02%; `COc1cc(SC)ccc1C(=O)NCC1(N(C)C)CCCCC1`: inactive: 0%.
